Tested on: RS4-11
Test: Antiproliferative activity against human RS4;11 cells assessed as inhibition of cell growth measured after 4 days by WST-8 assay
Format: functional, cell-based
Conditions: time 4.0 day; call rule not given here

## O=C1CCC(N2Cc3c(C#CC4CCN(C(=O)[C@H]5CC[C@H](NC(=O)[C@H]6NC7(CCCCC7)[C@]7(C(=O)Nc8cc(Cl)ccc87)[C@H]6c6cccc(Cl)c6F)CC5)CC4)cccc3C2=O)C(=O)N1 (stereo partly specified)
  Activity: Active; Compound Showed Weaker Cell Growth Inhibition

Reference: ChEMBL document CHEMBL6083271 (J Med Chem, 2024)
